Source: patent US5032404A, “Lipsome-incorporation of polyenes” (priority 1989, dated 1991)
Read-outs that look alike come from different tables or passages of the source.

Columns and labels:
[1] = system: human RBCs; experiment: In vitro toxicity: lysis of human red blood cells (hemoglobin release at 540 nm); details: 37° C., 45 min
[2] = system: Hale-Stoner mice; experiment: In vivo toxicology of free- and liposomal-hamycin in mice; details: 90 days observation

hamycin
Lysis of human RBCs ([1]; 4.0 ug/ml): 100% | Lysis of human RBCs, dose dependence ([1]; 0.4 to 4.0 ug/ml): linear increase in lysis | Maximal tolerated dose (MTD) [2]: 20 micrograms/mouse | Maximum solubility (DMFA): 10 mg/mL | Solubility in DMFA at 1 mg/ml (DMFA, 1 mg/ml): Yes | Maximum solubility (DMSO): 20 mg/mL | Solubility in DMSO at 1 mg/ml (DMSO, 1 mg/ml): Yes | Solubility in chloroform at 1 mg/ml (chloroform, 1 mg/ml): Nil | Solubility in ethanol at 1 mg/ml (ethanol, 1 mg/ml): Soluble | Maximum solubility (methanol): 0.1 mg/mL | Solubility in methanol at 1 mg/ml (methanol, 1 mg/ml): Partial | Solubility in water/saline at 1 mg/ml (water/saline, 1 mg/ml): Nil
